# Target: Human recombinant ETA receptor (Homo sapiens, UniProt P25101)
# By UniProt entry, the sequences of proteins in these tests, tags left out. Residues count along the entry.
# UniProt P25101, 21-427: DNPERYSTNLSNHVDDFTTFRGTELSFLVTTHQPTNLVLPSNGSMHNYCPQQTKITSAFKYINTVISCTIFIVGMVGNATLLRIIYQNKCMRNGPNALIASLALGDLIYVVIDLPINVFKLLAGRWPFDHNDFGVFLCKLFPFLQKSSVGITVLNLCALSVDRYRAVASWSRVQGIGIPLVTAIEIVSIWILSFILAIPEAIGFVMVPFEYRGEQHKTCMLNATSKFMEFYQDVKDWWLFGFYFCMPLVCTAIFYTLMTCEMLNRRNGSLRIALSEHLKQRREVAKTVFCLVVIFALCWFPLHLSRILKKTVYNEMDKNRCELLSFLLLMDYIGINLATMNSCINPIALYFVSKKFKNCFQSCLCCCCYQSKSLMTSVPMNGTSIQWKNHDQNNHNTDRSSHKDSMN
# Experiment: biochemical
compound,measurement,value
"COc1nc(C)cnc1NS(=O)(=O)c1cccnc1-c1ccc(-c2nnco2)cc1 [Compound (I), N-(3-methoxy-5-methylpyrazin-2-yl)-2-(4-[1,3,4-oxadiazol-2-yl]phenyl)pyridine-3-sulphonamide]",IC50,5.37 nM
